{"source": "patent US20080175878A1", "target": "protease for activating the blood clotting factor VII (human) (UniProt Q14520)", "assay": "cell-based or functional assay", "data": [{"substance": "aprotinin (from UniProt P00974 36-93)", "values": [{"measurement": "FVII activation factor in the control (protease + aprotinin, then FVII), protease solution diluted 1:5 (x times control)", "value": 1}, {"measurement": "FVII activation factor in the control (protease + aprotinin, then FVII), protease solution diluted 1:10 (x times control)", "value": 1}, {"measurement": "FVII activation factor in the control (protease + aprotinin, then FVII), protease solution diluted 1:20 (x times control)", "value": 1}, {"measurement": "FVIII activity (% of control), protease incubated with aprotinin prior to contact with FVIII, 0 min", "value": 98, "unit": "%"}, {"measurement": "FVIII activity (% of control), protease incubated with aprotinin prior to contact with FVIII, 5 min", "value": 97, "unit": "%"}, {"measurement": "FVIII activity (% of control), protease incubated with aprotinin prior to contact with FVIII, 10 min", "value": 97, "unit": "%"}, {"measurement": "FVIII activity (% of control), protease incubated with aprotinin prior to contact with FVIII, 20 min", "value": 96, "unit": "%"}, {"measurement": "FVIIa content (Staclot FVIIa-rTF test) after protease + aprotinin, then FVII (mlU of FVIIa/ml)", "value": 11}]}]}
